{"source": "Sander's compilation of Henry's law constants", "key": {"[1]": {"assay": "Henry solubility constant Hcp at 298.15 K (mol/(m3 Pa))"}, "[2]": {"assay": "Henry solubility constant Hcp at 293 K (mol/(m3 Pa))", "settings": "reference: Kames and Schurath (1992)"}, "[3]": {"settings": "reference: Kames and Schurath (1992)"}, "[4]": {"settings": "reference: Shepson et al. (1996)"}}, "data": [{"smiles": "CCCCO[N+](=O)[O-]", "note": "[1-butyl nitrate]", "values": [{"measurement": "Henry solubility constant Hcp", "setting": "[1]; [3]", "value": 0.01}]}, {"smiles": "CCC(O)CO[N+](=O)[O-]", "note": "(configuration not stated) [1-nitrooxy-2-butanol]", "values": [{"measurement": "Henry solubility constant Hcp", "setting": "[1]; [4]", "value": 57}]}, {"smiles": "CCCCCO[N+](=O)[O-]", "note": "[1-pentyl nitrate]", "values": [{"measurement": "Henry solubility constant Hcp at 293 K", "setting": "[2]", "value": 0.012}]}, {"smiles": "CCC(C)O[N+](=O)[O-]", "note": "(configuration not stated) [2-butyl nitrate]", "values": [{"measurement": "Henry solubility constant Hcp", "setting": "[1]; [3]", "value": 0.0064}]}, {"smiles": "CCC(CO)O[N+](=O)[O-]", "note": "(configuration not stated) [2-nitrooxy-1-butanol]", "values": [{"measurement": "Henry solubility constant Hcp", "setting": "[1]; [4]", "value": 59}]}, {"smiles": "CC(O)C(C)O[N+](=O)[O-]", "note": "(configuration not stated) [2-nitrooxy-3-butanol]", "values": [{"measurement": "Henry solubility constant Hcp", "setting": "[1]; [4]", "value": 100}]}, {"smiles": "CCCC(C)O[N+](=O)[O-]", "note": "(configuration not stated) [2-pentyl nitrate]", "values": [{"measurement": "Henry solubility constant Hcp", "setting": "[1]; [3]", "value": 0.0036}]}, {"smiles": "CCl", "note": "[chloromethane]", "values": [{"measurement": "Henry solubility constant Hcp", "setting": "[1]; reference: Boggs and Buck (1958)", "value": 0.00099}, {"measurement": "Henry solubility constant Hcp", "setting": "[1]; reference: Chen et al. (2012)", "value": 0.00091}, {"measurement": "Henry solubility constant Hcp", "setting": "[1]; reference: Elliott and Rowland (1993)", "value": 0.0011}, {"measurement": "Henry solubility constant Hcp", "setting": "[1]; reference: Glew and Moelwyn-Hughes (1953)", "value": 0.001}, {"measurement": "Henry solubility constant Hcp", "setting": "[1]; reference: Gossett (1987)", "value": 0.0012}, {"measurement": "Henry solubility constant Hcp", "setting": "[1]; reference: Reichl (1995)", "value": 0.00085}, {"measurement": "Henry solubility constant Hcp", "setting": "[1]; reference: Swain and Thornton (1962)", "value": 0.0011}]}, {"smiles": "CCCCOCCCC", "note": "[dibutyl ether]", "values": [{"measurement": "Henry solubility constant Hcp", "setting": "[1]; reference: Hwang et al. (2010)", "value": 0.0072}, {"measurement": "Henry solubility constant Hcp", "setting": "[1]; reference: Ioffe et al. (1984)", "value": 0.0021}]}, {"smiles": "CC(C)CO[N+](=O)[O-]", "note": "[isobutyl nitrate]", "values": [{"measurement": "Henry solubility constant Hcp", "setting": "[1]; [3]", "value": 0.007}]}]}
